Patent US5892063A (Hauser, Inc., priority 1997, dated 1999)

Tested on: NCI-H322M
Assay: SRB growth screen, non-small cell lung cancer NCI-H322M
Settings: 48 h

CC(=O)O[C@H]1C(=O)[C@@]2(C)[C@H]([C@H](OC(=O)c3ccccc3)[C@]3(O)C[C@H](OC(=O)[C@H](O)[C@@H](NC(=O)C4(C)OC4C)c4ccccc4)C(C)=C1C3(C)C)[C@]1(OC(C)=O)CO[C@@H]1C[C@@H]2O (stereo partly shown) [Ceph-epoxide, cephalomannine epoxide]
Log10 TGI: > -4.00 log10 M
